The values below are quoted from earlier work in paper PMC3131558, “Plitidepsin Has a Safe Cardiac Profile: A Comprehensive Analysis” (Marine Drugs, 2011).

In one data set the test system is dog. As to conditions: cited from earlier work. The source says:
(§1) Plitidepsin has neither shown cardiac toxicity during preclinical/toxicology studies nor has been reported in early phase I clinical trials.

A further data set concerns patients. Conditions: sudden death attributed to possible fatal ventricular arrhythmia; cited from earlier work.
Source text: as §1

For FK228, in the data set on dog, the “Cardiotoxic effects in preclinical toxicology studies in dog” value is “cardiotoxic effects”. Moreover, in the data set with patients, the “Cardiac findings in phase II clinical trials” value is “QTc prolongation, moderate ventricular tachycardia and sudden death”.
